Reference: US7192616B2, “Plant extract of the Olea europaea species as NO-synthase inhibitor and uses” (L'Oreal, priority 2000, dated 2007)

Chains of the proteins cited; added tags and fusions are not shown.
UniProt P35228, whole entry, species assumed: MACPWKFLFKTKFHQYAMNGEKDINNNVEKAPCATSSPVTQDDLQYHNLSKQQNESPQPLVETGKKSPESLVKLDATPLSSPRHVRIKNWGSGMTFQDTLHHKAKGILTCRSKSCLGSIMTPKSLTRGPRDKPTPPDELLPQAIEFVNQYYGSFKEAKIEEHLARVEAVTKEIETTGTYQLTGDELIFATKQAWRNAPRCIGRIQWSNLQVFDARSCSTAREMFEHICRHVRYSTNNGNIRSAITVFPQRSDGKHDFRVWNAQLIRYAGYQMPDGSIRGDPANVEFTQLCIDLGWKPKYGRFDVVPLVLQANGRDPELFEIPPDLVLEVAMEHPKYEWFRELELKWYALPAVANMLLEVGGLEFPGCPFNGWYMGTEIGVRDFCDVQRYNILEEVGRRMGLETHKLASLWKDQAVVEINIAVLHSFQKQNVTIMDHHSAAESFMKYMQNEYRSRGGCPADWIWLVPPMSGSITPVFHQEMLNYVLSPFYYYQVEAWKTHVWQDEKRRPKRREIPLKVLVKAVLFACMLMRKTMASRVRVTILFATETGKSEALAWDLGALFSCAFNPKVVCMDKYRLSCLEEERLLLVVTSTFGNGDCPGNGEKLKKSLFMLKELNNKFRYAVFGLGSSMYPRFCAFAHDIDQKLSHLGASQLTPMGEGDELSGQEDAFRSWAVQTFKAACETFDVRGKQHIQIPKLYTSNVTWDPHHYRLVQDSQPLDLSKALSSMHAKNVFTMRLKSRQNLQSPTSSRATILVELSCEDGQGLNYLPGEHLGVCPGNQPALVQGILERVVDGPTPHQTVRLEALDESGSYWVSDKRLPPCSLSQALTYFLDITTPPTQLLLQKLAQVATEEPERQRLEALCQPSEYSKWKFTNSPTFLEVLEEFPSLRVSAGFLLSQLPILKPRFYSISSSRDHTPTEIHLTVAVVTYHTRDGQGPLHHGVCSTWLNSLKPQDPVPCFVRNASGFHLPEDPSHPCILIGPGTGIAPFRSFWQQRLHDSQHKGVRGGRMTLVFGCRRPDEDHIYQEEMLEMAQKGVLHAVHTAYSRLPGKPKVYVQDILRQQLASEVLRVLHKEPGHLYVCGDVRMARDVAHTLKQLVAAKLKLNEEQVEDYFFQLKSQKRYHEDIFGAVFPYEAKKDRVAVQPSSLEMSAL

Molecular target: T1, inducible NO-synthase (NO-synthase 2) (Homo sapiens, UniProt P35228)
T1 construct: positive control (induction of the enzyme): mixtures of γ-interferon (1000 U/ml) and interleukin-1β (100 U/ml); endogenous in cells
Test: Activity on inducible NO-synthase (test of Heck et al.): nitrite/nitrate decrease after stimulation of NO-synthase 2
Type: cell-based
Conditions: control compound at 200 μM

Compound | % inhibition
CNC(=N)NCCC[C@H](N)C(=O)O [C, N^G-monomethyl-L-arginine (D form)] | 0%
CNC(=N)NCCC[C@H](N)C(=O)O [B, N^G-monomethyl-L-arginine] | 100%
